How the values were obtained:
[1] = molecular target: human GST-TBCD (tubulin-specific chaperone D, GST tag kept) (human, UniProt Q9BTW9-1); test: pull-down
[2] = molecular target: human TBCD after removal of the GST tag with TEV protease (human, UniProt Q9BTW9-1); test: SEC

binding result [1]: binds | binding result [2]: binds
B1: human ARL2 (ARF-like 2) (natural protein)
chain: MGLLTILKKMKQKERELRLLMLGLDNAGKTTILKKFNGEDIDTISPTLGFNIKTLEHRGFKLNIWDVGGQKSLRSYWRNYFESTDGLIWVVDSADRQRMQDCQRELQSLLVEERLAGATLLIFANKQDLPGALSSNAIREVLELDSIRSHHWCIQGCSAVTGENLLPGIDWLLDDISSRIFTAD
